Literature values, collected in patent US20240226024A1 (Empros Pharma AB, priority 2021, published 2024).

Conditions: oral administration

For `C[C@H]1O[C@H](O[C@H]2[C@H](O)[C@@H](O)[C@@H](O[C@H]3[C@H](O)[C@@H](O)C(O)O[C@@H]3CO)O[C@@H]2CO)[C@H](O)[C@@H](O)[C@@H]1N[C@H]1C=C(CO)[C@@H](O)[C@H](O)[C@H]1O` (stereo partly drawn) [acarbose, O-4,6-Dideoxy-4-[[(1S,4R,5S,6S)-4,5,6-trihydroxy-3-(hydroxymethyl)cyclohex-2-enyl]amino]-α-D-glucopyranosyl-(1→4)-O-α-D-gluco-pyranosyl-(1→4)-D-glucopyranose], the “Fraction of the dose absorbed” value is given as “less than 5%”.
